Test results reported in patent US6350596B2, “Method for producing L-phenylalanine” (Ajinomoto Co., Inc., priority 2000, dated 2002).

Test system: Methylophilus methylotrophus pFp^R phe^R mutant strain No. 227-16
Format: cell-based
Text: The new mutants which were resistant to 1 g/L of meta-fluorophenylalanine (hereinafter abbreviated to mFp^R) were isolated from the strain No. 227-16 after NG-mutagenesis as it was described above.

N[C@@H](Cc1cccc(F)c1)C(=O)O [m-fluorophenylalanine]
concentration to which the strain was resistant: 0.5 g/L
